Values of other authors, collected in US10332616B2, “Movable type method applied to protein-ligand binding” (University of Florida Research Foundation, Inc., priority 2013, dated 2019).

Details: experimental solvation free energy; test set with 372 neutral compounds

Exp. ΔGsolv: -0.56 kcal/mol
Structure (SMILES): CCl [Compound 0160chl]
